The values below come from patent publication EP3632916B1, “MORPHINAN COMPOUNDS” (Concert Pharmaceuticals Inc., priority 2007, dated 2008).

Data set [1] in a line: Metabolic stability in human liver microsomes. As to conditions: 0.25µM of each compound, 2 mg/mL human liver microsomes; Figure 2. How it is done:
(§1) The objectives of this study were to determine the metabolic stability of the test compounds in pooled human and chimpanzee liver microsomal incubations. Samples of the test compounds, exposed to pooled human or chimp liver microsomes, were analyzed using HPLC-MS (or MS/MS) detection. For determining metabolic stability, multiple reaction monitoring (MRM) was used to measure the disappearance of the test compounds.
(§2) Experimental Procedures: Human liver and Cynomolgus monkey liver microsomes were obtained from XenoTech, LLC (Lenexa, KS).
(§3) Incubation of Test Compounds with Liver Microsomes: The reaction mixture, minus cofactors, was prepared. […] Another aliquot of the reaction mixture was prepared as the negative control. […] An aliquot of the reaction mixture was prepared as a blank control, by the addition of plain organic solvent (no test compound is added).
(§4) All samples were analyzed using LC-MS (or MS/MS). An LC-MRM-MS/MS method is used for metabolic stability.

The nature of data set [2]: Metabolic stability in cynomolgus monkey liver microsomes. The settings on record: 1µM of each compound, 0.5 mg/mL microsomes; compared with dextromethorphan; Figure 1. How it is done:
as §1, §2, §3, §4
(In general: Liver microsomes are vesicles of endoplasmic reticulum, rich in cytochrome P450 enzymes.)

For data set [3] the following is noted: monkeys. How it is done:
(§5) The samples were used for the determination of plasma drug levels by LC/MS/MS for estimating pharmacokinetic parameters. This study was conducted in accordance with Shanghai Medicilon Inc. Standard Operating Procedures (SOPs). The Sponsor provided the test compounds and internal standard compound.
(§6) The combination dose was prepared by mixing both by 1:1 to yield a concentration of 1 mg/mL for each compound. […] The doses were given BID orally with an interval of 12 hours. […] Dosing volume of Quinidine was determined based on the dose each animal was getting. Dose volumes for each test animal was determined based on individual body weight. Body weights were taken on each day of dose administration and were be recorded.
(§7) Dilution using cynomolgus monkey plasma blank were applied if the sample concentration was over the ULOQ of calibration standard curve. The data acquisition and control system was created using Analyst 1.4 software from ABI Inc.

Data set [4] is described as follows: Urine levels in cynomolgus monkeys after oral administration with quinidine. As to conditions: at the same quinidine concentration, compared to dextromethorphan, Figure 6. How it is done: as §5, §6, §7

`[2H]C([2H])([2H])Oc1ccc2c(c1)[C@]13CCCC[C@@H]1[C@H](C2)N(C([2H])([2H])[2H])CC3` [Compound 101, (+)-3-d3-methoxy-17-d3-methyl-(9α,13α,14α)-morphinan]: the “remained intact after 30 minutes of incubation” value (from here on “remained intact after 30 minutes”) in data set [1] is listed as “approximately 45%”. Also, in data set [2], the “stability in monkey liver microsomes” value is given as “greater stability than dextromethorphan”. Also, the plasma levels entry in data set [3] (co administered with the same amount of quinidine, compared to dextromethorphan, Figure 5) is “greater than dextromethorphan plasma levels”. Besides, the “metabolism to deuterated dextrorphan isotopologues” value in data set [3] (plasma, without quinidine, relative to metabolism of dextromethorphan to dextrorphan, Figure 4) is “reduced relative to metabolism of dextromethorphan to dextrorphan”. Also, the “urine levels of parent compound” value in data set [4] is given as “less Compound 101 in the urine than dextromethorphan”.

Regarding `[2H]C([2H])([2H])Oc1ccc2c(c1)[C@]13CCCC[C@@H]1[C@H](C2)N(C)CC3` [Reference compound 100, (+)-3-d3-methoxy-17-methyl-(9α,13α,14α)-morphinan], the “remained intact after 30 minutes” value in data set [1] is given as about 42%. The “stability in monkey liver microsomes” value in data set [2] is recorded as “greater stability than dextromethorphan”.

`COc1ccc2c(c1)[C@]13CCCC[C@@H]1[C@H](C2)N(C)CC3` [dextromethorphan, (+)-3-methoxy-17-methyl-(9α,13α,14α)-morphinan, reference compound]: the “remained intact after 30 minutes” value in data set [1] is recorded as “about 33%”.
